Measurements reported in patent publication US20250340560A1, “SUBSTITUTED PYRAZOLO[1,5-a]PYRIMIDINES AS BRUTON'S TYROSINE KINASE MODULATORS” (BEIGENE SWITZERLAND GMBH, priority 2013, published 2025).

Sequences of proteins named here, by UniProt entry; tags and fusion partners are left off. A change or cut given only in a name is not applied to a line headed by its entry.
UniProt Q06187: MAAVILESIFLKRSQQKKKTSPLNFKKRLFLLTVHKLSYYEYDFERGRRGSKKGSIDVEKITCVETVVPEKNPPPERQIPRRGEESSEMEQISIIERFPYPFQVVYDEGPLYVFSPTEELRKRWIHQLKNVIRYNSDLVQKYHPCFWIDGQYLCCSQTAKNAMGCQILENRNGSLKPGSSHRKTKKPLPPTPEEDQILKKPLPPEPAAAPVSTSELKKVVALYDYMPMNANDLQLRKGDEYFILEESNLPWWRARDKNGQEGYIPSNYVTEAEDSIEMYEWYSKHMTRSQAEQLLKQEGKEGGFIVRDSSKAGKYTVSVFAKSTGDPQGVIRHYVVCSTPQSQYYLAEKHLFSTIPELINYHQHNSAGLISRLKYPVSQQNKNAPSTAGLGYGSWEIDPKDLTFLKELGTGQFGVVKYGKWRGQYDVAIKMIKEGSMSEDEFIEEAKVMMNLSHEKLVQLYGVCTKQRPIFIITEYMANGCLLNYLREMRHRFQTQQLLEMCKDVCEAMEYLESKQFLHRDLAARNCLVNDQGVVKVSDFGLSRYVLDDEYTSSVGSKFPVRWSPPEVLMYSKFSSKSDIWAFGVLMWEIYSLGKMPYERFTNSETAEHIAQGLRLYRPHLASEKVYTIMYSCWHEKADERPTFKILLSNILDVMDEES

Target: Recombinant Btk (Homo sapiens (Human), UniProt Q06187)
Test: BTK kinase assay (TR-FRET)
Details: read-out: IC50 (nM) Btk; 1 hour pre-incubation, ATP at Km

## C=CC(=O)Nc1ccccc1C1CCNc2c(C(N)=O)c(-c3ccc(C)c(OC)c3)nn21 (stereo not shown) [Compound 133, 7-(2-acrylamidophenyl)-2-(3-methoxy-4-methylphenyl)-4,5,6,7-tetrahydropyrazolo[1,5-a]pyrimidine-3-carboxamide]
  IC50: 0.53 nM
